Drawing on PubChem BioAssay AID1004 (SRMLSC, 2008), this text covers viability for one compound.

This assay in a line: viability of HCT116 lacking mutant beta-catenin – cell-based, DP diverse set, validation, pilot screen (AID 1004). Particulars: HCT116 (mutant beta-catenin deleted) viability, CellTiter-Glo, 60 h; at 10 µM; hits give low values.

This is a selection; strong and weak results do not stand in their true shares. Active and inactive are the calls of the source.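 How the source made its calls: active means viability at 10 µM of 29.74% or lower, 3 SD below the compound median; inactive means the rest.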

With `CN(C(=O)Cc1ccc(Cl)c(Cl)c1)[C@H]1CCCC[C@@H]1N1CCCC1`, the viability was inactive: 90%.
